Laboratory results taken from US10526316B2, “Quinoxaline and pyridopyrazine derivatives as PI3Kβ inhibitors” (Janssen Pharmaceutica NV, priority 2015, dated 2020).

Chains of the proteins cited; added tags and fusions are not shown. Lines headed by an entry give the natural chain unless they say otherwise; changes in a name come on top.
UniProt P42338, whole entry: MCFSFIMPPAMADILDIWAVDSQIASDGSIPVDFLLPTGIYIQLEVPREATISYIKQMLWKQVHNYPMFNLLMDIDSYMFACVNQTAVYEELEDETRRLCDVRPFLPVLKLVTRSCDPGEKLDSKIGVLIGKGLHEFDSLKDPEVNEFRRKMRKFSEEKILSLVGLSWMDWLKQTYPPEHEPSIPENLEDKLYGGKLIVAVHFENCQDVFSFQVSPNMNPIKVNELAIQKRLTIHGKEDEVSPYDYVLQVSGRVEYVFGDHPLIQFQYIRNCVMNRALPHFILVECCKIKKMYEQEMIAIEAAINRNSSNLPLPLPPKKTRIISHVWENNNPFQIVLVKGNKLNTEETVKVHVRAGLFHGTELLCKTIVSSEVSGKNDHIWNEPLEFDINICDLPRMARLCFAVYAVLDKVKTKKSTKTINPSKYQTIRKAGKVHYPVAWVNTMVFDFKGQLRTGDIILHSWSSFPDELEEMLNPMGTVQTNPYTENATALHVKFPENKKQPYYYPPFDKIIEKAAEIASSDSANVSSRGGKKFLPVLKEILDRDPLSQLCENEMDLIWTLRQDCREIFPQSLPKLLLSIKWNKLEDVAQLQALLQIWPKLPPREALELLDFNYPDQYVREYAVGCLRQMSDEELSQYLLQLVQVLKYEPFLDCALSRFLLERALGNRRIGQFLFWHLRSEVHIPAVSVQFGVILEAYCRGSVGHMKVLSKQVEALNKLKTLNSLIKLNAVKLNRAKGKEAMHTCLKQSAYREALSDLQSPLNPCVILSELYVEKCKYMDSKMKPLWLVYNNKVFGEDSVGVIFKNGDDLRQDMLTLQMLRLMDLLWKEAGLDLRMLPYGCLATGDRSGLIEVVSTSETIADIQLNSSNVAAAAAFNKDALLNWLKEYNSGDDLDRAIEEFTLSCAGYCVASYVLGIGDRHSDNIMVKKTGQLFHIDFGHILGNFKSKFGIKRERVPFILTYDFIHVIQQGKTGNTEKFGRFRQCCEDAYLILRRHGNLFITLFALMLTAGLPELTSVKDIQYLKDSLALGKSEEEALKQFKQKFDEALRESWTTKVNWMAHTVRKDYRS
UniProt P42336, whole entry: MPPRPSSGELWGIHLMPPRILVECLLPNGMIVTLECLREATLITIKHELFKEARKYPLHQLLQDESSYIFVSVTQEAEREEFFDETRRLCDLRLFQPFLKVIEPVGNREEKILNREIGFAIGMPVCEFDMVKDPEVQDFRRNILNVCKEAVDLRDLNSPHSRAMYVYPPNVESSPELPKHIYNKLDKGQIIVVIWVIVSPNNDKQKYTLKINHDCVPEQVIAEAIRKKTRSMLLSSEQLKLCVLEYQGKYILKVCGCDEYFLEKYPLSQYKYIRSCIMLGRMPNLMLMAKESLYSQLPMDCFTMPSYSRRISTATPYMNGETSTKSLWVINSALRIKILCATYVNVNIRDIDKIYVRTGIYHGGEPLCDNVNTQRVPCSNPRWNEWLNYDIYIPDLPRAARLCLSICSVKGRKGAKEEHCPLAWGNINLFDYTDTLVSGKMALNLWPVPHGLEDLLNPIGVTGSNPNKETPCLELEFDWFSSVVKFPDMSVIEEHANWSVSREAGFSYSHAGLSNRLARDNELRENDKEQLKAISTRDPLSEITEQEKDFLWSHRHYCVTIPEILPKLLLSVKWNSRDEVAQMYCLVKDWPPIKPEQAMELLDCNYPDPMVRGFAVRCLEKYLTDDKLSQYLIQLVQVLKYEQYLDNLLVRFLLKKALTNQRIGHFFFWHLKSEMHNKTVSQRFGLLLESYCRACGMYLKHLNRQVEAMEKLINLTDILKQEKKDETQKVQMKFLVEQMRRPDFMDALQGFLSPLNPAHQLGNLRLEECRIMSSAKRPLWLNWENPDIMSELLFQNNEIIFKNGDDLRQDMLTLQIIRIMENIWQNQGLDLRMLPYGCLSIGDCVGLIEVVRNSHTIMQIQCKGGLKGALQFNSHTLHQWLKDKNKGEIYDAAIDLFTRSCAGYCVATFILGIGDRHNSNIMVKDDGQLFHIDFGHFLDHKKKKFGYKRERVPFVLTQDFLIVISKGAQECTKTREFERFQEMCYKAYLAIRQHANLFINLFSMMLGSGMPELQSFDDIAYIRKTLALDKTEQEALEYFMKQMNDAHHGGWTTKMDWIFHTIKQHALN
UniProt P48736, whole entry: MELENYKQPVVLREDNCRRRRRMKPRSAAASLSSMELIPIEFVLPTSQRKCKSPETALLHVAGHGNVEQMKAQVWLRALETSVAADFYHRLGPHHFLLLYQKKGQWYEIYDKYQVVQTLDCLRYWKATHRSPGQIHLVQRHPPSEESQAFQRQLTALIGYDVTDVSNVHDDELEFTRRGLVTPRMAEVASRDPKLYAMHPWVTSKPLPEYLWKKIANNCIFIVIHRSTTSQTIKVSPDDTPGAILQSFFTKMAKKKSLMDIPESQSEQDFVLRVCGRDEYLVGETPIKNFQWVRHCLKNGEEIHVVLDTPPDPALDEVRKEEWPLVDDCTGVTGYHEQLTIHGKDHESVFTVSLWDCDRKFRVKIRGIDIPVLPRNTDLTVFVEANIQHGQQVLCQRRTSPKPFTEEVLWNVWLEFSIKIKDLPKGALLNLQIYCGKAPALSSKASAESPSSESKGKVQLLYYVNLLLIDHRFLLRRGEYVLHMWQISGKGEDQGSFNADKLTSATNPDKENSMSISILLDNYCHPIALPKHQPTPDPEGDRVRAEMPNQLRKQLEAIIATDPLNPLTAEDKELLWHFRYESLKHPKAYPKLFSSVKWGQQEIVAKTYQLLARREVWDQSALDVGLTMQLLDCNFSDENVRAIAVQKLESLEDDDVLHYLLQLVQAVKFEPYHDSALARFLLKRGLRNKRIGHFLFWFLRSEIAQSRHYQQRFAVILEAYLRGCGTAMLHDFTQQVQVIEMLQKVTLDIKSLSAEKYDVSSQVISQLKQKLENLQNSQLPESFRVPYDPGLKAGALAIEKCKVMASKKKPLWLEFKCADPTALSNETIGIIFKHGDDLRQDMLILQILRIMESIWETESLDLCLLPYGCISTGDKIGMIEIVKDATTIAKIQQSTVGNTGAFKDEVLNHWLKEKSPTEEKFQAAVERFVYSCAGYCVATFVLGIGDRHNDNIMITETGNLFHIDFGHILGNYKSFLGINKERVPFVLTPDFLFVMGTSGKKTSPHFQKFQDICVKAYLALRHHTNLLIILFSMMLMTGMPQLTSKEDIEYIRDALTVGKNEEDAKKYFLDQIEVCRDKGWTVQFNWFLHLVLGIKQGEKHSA
UniProt O00329, whole entry: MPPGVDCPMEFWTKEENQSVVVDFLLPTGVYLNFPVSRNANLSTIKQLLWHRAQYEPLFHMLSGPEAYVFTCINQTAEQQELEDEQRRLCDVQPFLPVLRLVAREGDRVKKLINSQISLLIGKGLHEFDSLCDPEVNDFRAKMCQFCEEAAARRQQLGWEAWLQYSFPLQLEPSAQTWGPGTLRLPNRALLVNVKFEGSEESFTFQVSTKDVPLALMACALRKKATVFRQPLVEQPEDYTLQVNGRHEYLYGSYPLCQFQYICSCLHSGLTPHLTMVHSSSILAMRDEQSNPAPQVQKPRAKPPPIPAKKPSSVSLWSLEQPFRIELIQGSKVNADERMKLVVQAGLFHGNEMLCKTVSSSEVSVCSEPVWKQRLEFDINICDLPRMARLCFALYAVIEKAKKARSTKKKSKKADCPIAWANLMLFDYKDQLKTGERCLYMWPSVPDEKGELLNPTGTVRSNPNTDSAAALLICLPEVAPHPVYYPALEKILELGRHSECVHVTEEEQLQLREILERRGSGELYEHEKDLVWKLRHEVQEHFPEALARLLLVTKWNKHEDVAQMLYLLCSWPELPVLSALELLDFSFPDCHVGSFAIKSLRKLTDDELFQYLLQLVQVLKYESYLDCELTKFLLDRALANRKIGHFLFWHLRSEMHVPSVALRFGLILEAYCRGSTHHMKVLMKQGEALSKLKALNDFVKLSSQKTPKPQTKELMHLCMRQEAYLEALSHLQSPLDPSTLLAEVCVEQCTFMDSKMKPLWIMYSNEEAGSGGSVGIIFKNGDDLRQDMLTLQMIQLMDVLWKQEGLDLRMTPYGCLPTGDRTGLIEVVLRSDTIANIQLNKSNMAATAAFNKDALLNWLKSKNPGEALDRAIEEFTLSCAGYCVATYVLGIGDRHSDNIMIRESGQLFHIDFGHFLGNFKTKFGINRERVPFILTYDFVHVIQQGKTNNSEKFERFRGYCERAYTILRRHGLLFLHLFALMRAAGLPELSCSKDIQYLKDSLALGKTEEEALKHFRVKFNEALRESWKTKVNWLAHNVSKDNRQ

Legend:
PI3Kβ = PI3Kβ (Homo sapiens, UniProt P42338); assay: Enzyme binding assay (KINOMEscan, DiscoveRx); settings: read-out: Kd PIK3Cβ_h
Experimental: (§1) Enzyme Binding Assays (KINOMEscan®)
(§2) Kinase enzyme binding affinities of compounds disclosed herein were determined using the KINOMEscan technology performed by DiscoveRx Corporation, San Diego, Calif., USA (www.kinomescan.com). Table A reports the obtained Kd values (nM), with the Kd being the inhibitor binding constant: […]

kinase enzymes [1] = biological target: kinase enzymes (Homo sapiens, UniProt P42336); assay: Enzyme binding assay (KINOMEscan, DiscoveRx), further kinases of Table A; settings: read-out: Kd PIK3Cα_h, PIK3Cα_h
Experimental: as §1, §2

kinase enzymes [2] = biological target: kinase enzymes (Homo sapiens, UniProt P48736); assay: as above; settings: read-out: Kd PIK3Cγ_h, PIK3Cγ_h
Experimental: as §1, §2

PI3Kδ = PI3Kδ (Homo sapiens, UniProt O00329); assay: Enzyme binding assay (KINOMEscan, DiscoveRx); settings: read-out: Kd PIK3Cδ_h
[3] = system: Akt phosphorylated at Ser473 in PC-3 cells; assay: Cellular assay: phosphorylation of Akt at Ser473 in PC-3 cells (MSD ELISA); format: cell-based; settings: read-out: IC50 pAkt_S473, 60 min compound incubation
[4] = system: Akt phosphorylated at Thr308 in PC-3 cells; assay: Cellular assay: phosphorylation of Akt at Thr308 in PC-3 cells (MSD ELISA); format: cell-based; settings: read-out: IC50 pAkt_Thr308, 60 min compound incubation
kinase enzymes [5] = biological target: kinase enzymes (Homo sapiens, UniProt P42345); assay: Enzyme binding assay (KINOMEscan, DiscoveRx), further kinases of Table A; settings: read-out: Kd MTOR_h, MTOR_h
Experimental: as §1, §2

Compound	Kd (PI3Kβ)	Kd (kinase enzymes [1])	Kd (kinase enzymes [2])	Kd (PI3Kδ)	IC50 [3]	IC50 [4]	Kd (kinase enzymes [5])
CC(Oc1ccc(F)c(F)c1)c1cc(C(=O)N2CC[C@@H](N(C)C)C2)cc2ncc(N3CCOCC3)nc12 (single isomer, unassigned) [Compound 298b]	0.004 µM	4.79 µM	24.5 µM	0.724 µM	0.135 µM	0.047 µM	–
CC(Nc1cc(C(=O)NCCO)cc2ncc(N3CCOCC3)nc12)c1cc(F)cc(F)c1 (stereo not drawn)	0.098 µM	16.2 µM	> 30.2 µM	2.82 µM	> 0.513 µM	> 0.513 µM	13.2 µM
Cc1c(F)cccc1CNc1cc(C(=O)NCCO)cc2ncc(N3CCOCC3)nc12 [Compound 336]	0.004 µM	–	–	–	–	–	–
CNCCN(C)Cc1cc(C2CCCN2c2cc(F)cc(F)c2)c2nc(N3CCOCC3)cnc2c1 (stereo not drawn)	0.0003 µM	0.219 µM	0.191 µM	0.033 µM	0.041 µM	0.028 µM	21.9 µM
